Conditions in all cases: Gerbillinae
Experiment [1] deals with Kynurenine 3-monooxygenase (Meriones unguiculatus). Kind of experiment: Compound was evaluated for ex vivo inhibition of Kynurenine 3-hydroxylase activity in Liver from Gerbils after injecting perorally.
Experiment [2] shares this test system. The experiment can be described thus: Compound was evaluated for ex vivo inhibition of Kynurenine 3-hydroxylase activity in brain from Gerbils after injecting perorally.
For experiment [3] the test system is unchanged. The experiment can be described thus: Compound was evaluated for ex vivo inhibition of Kynurenine 3-hydroxylase activity in Kidney from Gerbils after injecting perorally.

Structures are written as SMILES.

Regarding `Nc1ccc(S(=O)(=O)Nc2nc(-c3cc(C(F)(F)F)ccc3F)cs2)cc1`, the values for the median effective dose (ED50) in experiment [1], in experiment [2] and in experiment [3] were 0.7 µmol/kg, 3 µmol/kg and 0.9 µmol/kg, respectively.

The ED50 is the dose at which the effect has come halfway, by size or by number of responders.

(Values after ChEMBL document CHEMBL1130431, “Synthesis and biochemical evaluation of N-(4-phenylthiazol-2-yl)benzenesulfonamides as high-affinity inhibitors of kynurenine 3-hydroxylase” (J Med Chem, 1997).)
